From ChEMBL document CHEMBL1128666, “Synthesis and antimicrobial and toxicological studies of amino acid and peptide derivatives of kanamycin A and netilmicin” (J Med Chem, 1995)

How the values were obtained:
Staphylococcus aureus = details: ATCC 25923
Enterobacter cloacae = assay: Minimum inhibitory concentration (MIC) was measured against Enterobacter cloacae.; type: functional
Summary of the method: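 Strains were clinical isolates from the microbiology laboratories of Cliniques Universitaires St-Luc and Hôpital Brugmann, Brussels, and were characterized there. Compounds were tested as sulfate salts, which were stable in distilled water at pH 7.0 for at least 24 h. MIC was the highest dilution giving no visible growth, expressed in mg/L of free base.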

Acinetobacter lwoffii = details: acinetobacter iwoffi; ATCC 17986

GENTAMICIN
MIC (Staphylococcus aureus): 0.5 µg/mL | MIC (Enterobacter cloacae): 2 µg/mL | MIC (Acinetobacter lwoffii): 2 µg/mL
